≈ marks a conversion by molar mass, not a printed value.
Assays:
Experiment in all cases: ≥ marks a high value that may be exact or a test limit, other limits are often not marked, values filed in µg/mL are converted to µM
[1] = tested on: Pseudomonas aeruginosa PAO1
Escherichia coli BL21 = tested on: Escherichia coli BL21
[2] = tested on: Streptococcus pyogenes M1T1 5448
[3] = tested on: Staphylococcus aureus USA 300
[4] = tested on: Pseudomonas syringae pv. syringae EPS 94
[5] = tested on: Erwinia amylovora PMV 6076
[6] = tested on: Xanthomonas campestris pv. Vesicatoria 2133-2

MIC [1] | MIC (Escherichia coli BL21) | MIC [2] | MIC [3] | MIC [4] | MIC [5] | MIC [6] | Structure (SMILES)
> 128 µM | ≥ 32 µM | ≥ 32 µM | ≥ 128 µM | – | – | – | CC[C@H](C)[C@H](NC(=O)[C@H](CO)NC(=O)[C@H](CCC(=O)O)NC(=O)[C@H](CCCN=C(N)N)NC(=O)CNC(=O)[C@H](C)N)C(=O)N[C@@H](CCCCN)C(=O)N[C@@H](C)C(=O)N[C@@H](Cc1ccc(O)cc1)C(=O)N[C@@H](CC(C)C)C(=O)N[C@@H](CCCCN)C(=O)N[C@@H](CCCCN)C(=O)N[C@@H](CCC(=O)O)C(=O)N[C@H](C(=O)N[C@@H](CCCCN)C(=O)N[C@@H](CCCCN)C(=O)N[C@@H](CCCCN)C(=O)NCC(=O)N[C@@H](CCCCN)C(=O)N[C@@H](CCCN=C(N)N)C(=O)N[C@@H](C)C(=O)N[C@H](C(=O)N[C@H](C(=O)N[C@@H](C)C(=O)N[C@@H](Cc1c[nH]c2ccccc12)C(=O)O)[C@@H](C)CC)C(C)C)[C@@H](C)CC [AGRESIKAYLKKEIKKKGKRAVIAW]
– | – | – | – | 3.54 µM (≈ 8.7 µg/mL) | 6.12 µM (≈ 15.1 µg/mL) | 3.54 µM (≈ 8.7 µg/mL) | CC[C@H](C)[C@H](NC(=O)CNC(=O)[C@H](CC(C)C)NC(=O)[C@H](Cc1ccc(O)cc1)NC(=O)[C@H](CCCCN)NC(=O)[C@H](CC(C)C)NC(=O)[C@@H](NC(=O)[C@H](CCCCN)NC(=O)[C@H](CCCCN)NC(=O)[C@H](Cc1ccccc1)NC(=O)[C@H](CC(C)C)NC(=O)[C@H](CCCCN)NC(=O)[C@@H](N)CCCCN)[C@@H](C)CC)C(=O)NCC(=O)N[C@@H](CCCCN)C(=O)N[C@@H](Cc1ccccc1)C(=O)N[C@@H](CC(C)C)C(=O)N[C@@H](Cc1cnc[nH]1)C(=O)N[C@@H](CO)C(=O)N[C@@H](C)C(=O)N[C@@H](CCCCN)C(=O)O [KKLFKKILKYLGIGKFLHSAK]

Reference: DBAASP
